Assays:
urease = urease (Canavalia ensiformis, UniProt P07374); settings: 30 ml methanal (24% by weight) added to urease-contaminated urea system containing the inhibitor
Protocol: This can simply be studied by addition of 30 ml of methanal to the urease-contaminated and Cu^2+-contaminated reference system.
This is simple studied by addition of 30 ml methanal to the reference system contaminated with urease, Ag^+- or Pb^2+-ions.

urease EC 3.5.1.5 = urease EC 3.5.1.5 (Canavalia ensiformis, UniProt P07374); settings: for colour shift of phenolphthalein into red (ammonia formation by urea hydrolysis): 1 g inhibitor added to 10 g urea in 50 ml water, then 1 ml urease (540 units per ml), system also does not begin to smell of ammonia; for catalytic effect of the urease enzyme on the hydrolysis of urea: ions present in the urinal system
Protocol: For this example, a colourless urea reference system is defined by the following mixture: in a conical flask 10 g of synthetic urea is diluted with water to 50 ml, three drops of the acid-base indicator phenolphthalein is added.

copper sulphate, pentahydrate was tested, and the “formation of urea formaldehyde plastic in spite of urease contamination” value (urease) was “it is possible to form the urea formaldehyde plastic”, the “colour shift of phenolphthalein into red (ammonia formation by urea hydrolysis)” value (urease EC 3.5.1.5) was “the colour shift of phenolphthalein does not occur” and the “catalytic effect of the urease enzyme on the hydrolysis of urea” value (urease EC 3.5.1.5) was “completely lost”.
For `CC(=O)[O-].CC(=O)[O-].[Pb+2]` [lead acetate], the “formation of urea formaldehyde plastic in spite of urease contamination” value (urease) was “it is possible to form the urea formaldehyde plastic”, the “colour shift of phenolphthalein into red (ammonia formation by urea hydrolysis)” value (urease EC 3.5.1.5) was “the colour shift of phenolphthalein does not occur” and the “catalytic effect of the urease enzyme on the hydrolysis of urea” value (urease EC 3.5.1.5) was “completely lost”.
